System: ES cell line H9 (WA09)
Experiment: Fluorescent immunostaining of undifferentiation/differentiation markers, hESF9 medium with albumin and/or oleic acid
Assay type: cell-based, human
Source text: Bovine albumin (bovine serum albumin: BSA) has been used in many conventional media such as the aforementioned hESF9 medium. Since it is an animal-derived material, its substitution with an animal product-free ingredient was studied. […] Using the undifferentiation markers SSEA-4, TRA-1-60, and Nanog, and the differentiation marker SSEA-1, effects of adding bovine albumin or recombinant human albumin (rHSA, from Millipore Corporation) and/or oleic acid on the maintenance of an undifferentiated state of the ES cells were studied. When adding oleic acid and albumin, they were added in the form of albumin-conjugated oleic acid. Among the ingredients of the hESF9 medium, BSA and oleic acid were substituted with BSA-conjugated oleic acid (medium condition 1), rHSA alone (medium condition 2), or rHSA-conjugated oleic acid (medium condition 3). A medium in which none of BSA, rHSA, or oleic acid was added to the hESF9 medium was used as a negative control (medium condition 4). Cell line H9 (WA09) was cultured under these conditions. Cell line H9 (WA09) being cultured was cultured in hESF9 medium for 1 passage, subjected to fluorescent immunostaining, and analyzed on the percentage of positive cells with expression. The cells were fixed with 4% paraformaldehyde (PFA) in PBS at room temperature for 15 minutes, blocked with bovine serum, and then immunostained using anti-SSEA-4 antibody (from Abcam plc.) and AlexaFluor-labeled anti-mouse IgG (from Invitrogen Corporation); anti-TRA-1-60 antibody (from Abcam plc.) and AlexaFluor-labeled anti-mouse IgM (from Invitrogen Corporation); or anti-SSEA-1 antibody (from Abcam plc.) and AlexaFluor-labeled anti-mouse IgM (from Invitrogen Corporation). After the blocking with bovine serum comprising Triton X, the cells were treated with immunostaining with anti-Nanog antibody (from Cell Signaling Technology, Inc.) and anti-OCT4 antibody (from Santa Cruz Biotechnology, Inc.), reacted with an AlexaFluor-labeled secondary antibody, and observed under fluorescent microscope.
Under the medium condition (3), cultured cells of cell line H9 (WA09) at passage 3 were examined with fluorescent immunostaining using the undifferentiation markers SSEA-4, Tra1-60, and Nanog, and the differentiation marker SSEA-1.

[1] = medium condition (3), passage 3, FIG. 3

Substance	percentage of positive cells expressing the differentiation marker SSEA-1 (cultured for 1 passage, FIG. 2)	expression of the differentiation marker SSEA-1 [1]	expression of undifferentiation markers SSEA-4, Tra1-60, and Nanog [1]	percentage of positive cells expressing the undifferentiation marker SSEA-4, TRA-1-60, or Nanog (cultured for 1 passage, FIG. 2)
rHSA conjugated with oleic acid: 9.4 μg/mL oleic acid complexed with 1 mg/mL recombinant human albumin	decreases the expression of differentiation markers	low expression	high expression	
rHSA: recombinant human albumin from Millipore Corporation, added alone to hESF9 medium	significantly (* mark) increased			does not affect
